This note sets out measurements from paper PMC10979493.

By UniProt entry, the sequences of proteins in these tests, tags left out. Where a name states a change or a piece, a line headed by the entry shows the natural chain unless it says otherwise. Residues count along the entry.
UniProt P40763, 127-722 limits assumed: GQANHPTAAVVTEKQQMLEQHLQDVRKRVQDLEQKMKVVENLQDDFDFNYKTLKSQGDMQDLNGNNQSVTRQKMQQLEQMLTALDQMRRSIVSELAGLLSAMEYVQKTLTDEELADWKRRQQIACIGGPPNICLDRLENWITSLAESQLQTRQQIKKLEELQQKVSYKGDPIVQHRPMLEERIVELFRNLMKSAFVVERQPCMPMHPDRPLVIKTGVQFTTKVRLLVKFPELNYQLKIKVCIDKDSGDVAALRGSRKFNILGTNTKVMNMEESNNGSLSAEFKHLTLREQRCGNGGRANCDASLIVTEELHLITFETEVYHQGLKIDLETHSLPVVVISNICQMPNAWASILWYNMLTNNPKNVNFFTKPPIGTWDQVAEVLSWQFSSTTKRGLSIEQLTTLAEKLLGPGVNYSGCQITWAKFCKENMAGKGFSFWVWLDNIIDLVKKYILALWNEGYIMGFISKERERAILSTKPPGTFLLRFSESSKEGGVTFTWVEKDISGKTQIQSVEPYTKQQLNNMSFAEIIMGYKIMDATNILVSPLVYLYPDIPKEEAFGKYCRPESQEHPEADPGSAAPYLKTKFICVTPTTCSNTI
UniProt P40763, 586-685 limits assumed: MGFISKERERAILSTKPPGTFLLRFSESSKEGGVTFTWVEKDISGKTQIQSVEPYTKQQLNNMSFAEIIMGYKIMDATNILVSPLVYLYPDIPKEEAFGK
UniProt P40763, 586-685 I634A limits assumed: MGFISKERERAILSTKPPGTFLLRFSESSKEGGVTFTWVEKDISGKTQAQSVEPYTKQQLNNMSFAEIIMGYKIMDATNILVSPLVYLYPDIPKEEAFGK
UniProt P40763, 586-685 Q644A limits assumed: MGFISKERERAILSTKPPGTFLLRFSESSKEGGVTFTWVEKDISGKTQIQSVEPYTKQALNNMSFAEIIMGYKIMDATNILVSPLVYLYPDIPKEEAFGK

In one data set the target is STAT3-SH2D mutant I634A (Homo sapiens, UniProt P40763, I634A). The data set can be described thus: MST binding to STAT3-SH2 mutant I634A. From the text:
(§1) STAT1 (amino acid residues 127–716), STAT2 (amino acid residues 138–702), STAT3 (amino acid residues 127–722), STAT4 (amino acid residues 133–705), STAT5B (amino acid residues 136–703) and STAT6 (amino acid residues 113–658) were cloned into the pET28A vector. STAT3-SH2 (amino acid residues 586–685) and the mutants of the STAT3-SH2 produced by site-directed mutagenesis were also cloned into the pET28A vector. All recombinant human fusion proteins were expressed in E. coli BL21 (DE3). Then, according to different induction conditions, the protein expression was induced. During the induction of the expression of STAT3-SH2 and all the mutants, STAT1, STAT2, STAT3 and STAT6, when the OD value reached about 0.6–1.0, the E. coli was transferred to 22 °C and 0.5 mM Isopropyl β-D-1-thiogalactopyranoside (IPTG) was added. For the expression of STAT4 and STAT5B when the OD value reached about 0.5–0.6, the E. coli was transferred to 30 °C for 2.5–3 h and 0.2 mM IPTG was added.
(§2) Microscale thermophoresis (MST) was conducted as previously described.[28] Binding affinities of YY002, Stattic against purified STAT3^127–722 and STAT3-SH2 protein or YY002 against STAT3-SH2 WT and mutants were measured by a Monolith NT.115 (Nanotemper Technologies). […] The samples were then loaded into premium capillaries (NanoTemper Technologies) and measured at 25 °C using 20%–40% LED power and medium MST power. […]

The test system of data set [1] is shSTAT3 PDAC cells (Capan-2, PANC-1). Nature of the data set: Cell viability in shSTAT3 knockdown PDAC cells. Conditions: 72 h. How it is done:
The shRNAs for silencing STAT3 are listed in Supplementary Table S1. ShRNAs were respectively inserted into pLKO.1 vector, then were cotransfected into 293T cells with the packing plasmids pMD2G and pXPAX2, using Lipofectamine 2000 (Thermo Fisher Scientific, Beijing, China). After transfection for 72 h, the harvested lentiviruses were infected into tumor cell lines and puromycin was added to screen for stable STAT3 knockdown cells. Finally, the knockdown efficiency was detected by Western blot. […]
(§3) acute myeloid leukemia cell line (KG1), human atrial fibroblast (HAF), human […]
(§4) umbilical vein endothelial cell line (HUVEC), human embryonic kidney cell line […]
(§5) (HEK293T) was purchased from Cell Bank/Stem Cell Bank of the Chinese Academy […]
(§6) of Sciences and American Type Culture Collection (ATCC). Capan-2, PANC-1 and […]
(§7) HEK293T were cultured in Dulbecco’s Modified Eagle’s Medium (DMEM) supplemented with 10% fetal bovine serum (FBS) and 1% penicillin-streptomycin, and […]
(§8) additional 2.5% horse serum was added in the medium of MIA PaCa-2; AsPC-1, BxPC- […]
(§9) 3, PC3 and KG1 were cultured in RPMI 1640 medium supplemented with 10%-20% […]
(§10) FBS and 1% penicillin-streptomycin; HPAC was cultured in Dulbecco's Modified […]
(§11) Eagle Medium/Nutrient Mixture F-12 medium (DMEM/F-12), SW1990 was cultured […]
Cell viability was measured by MTS assay following the manufacturer ’s instructions. […]

In a further data set the test system is BxPC3 tumor. Nature of the data set: BxPC3 xenograft model. Conditions: mouse, in vivo.
A further data set concerns the target STAT3-SH2 (Homo sapiens, UniProt P40763). The data set can be described thus: MST binding to STAT3-SH2.
Excerpt: as §1, §2

For another data set, the system named is AsPC-1 cells. Nature of the data set: Orthotopic pancreatic cancer model (AsPC-1). Conditions: high concentration group.
For a further data set, the target named is STAT3^127–722 (Homo sapiens, UniProt P40763). Nature of the data set: MST binding to STAT3 127–722.
Excerpt: as §1, §2

Data set [2] has as its system MOLM16, OCI-AML3, Karpas-299, SUDHL-1, MDA-MB-231, MDA-MB-468. Nature of the data set: Cell viability (MTS), non-PDAC STAT3-dependent cell lines. On the procedure:
as §3, §4, §5, §6, §7, §8, §9, §10, §11
in Leibovitz's L-15 Medium, CFPAC-1 was cultured in Iscove's Modified Dulbecco's […]
Medium. HUVEC was cultured in Ham's F-12K supplemented with 0.1mg/mL Heparin, […]
0.03-0.05mg/mL ECGs, 10% FBS and 1% penicillin-streptomycin. HAF was cultured […]
in Fibroblast Medium supplemented with 10% FBS, 1% Fibroblast Growth Supplement […]
(FGS) and 1% penicillin-streptomycin.
Cell viability was measured by MTS assay following the manufacturer ’s instructions.
Briefly, cancer cells or normal cells were seeded in 96-well plates at appropriate […]

Data set [3] can be described thus: Liver microsome stability, mouse.
The next data set concerns the target STAT3-SH2D mutant Q644A (Homo sapiens, UniProt P40763, Q644A). Nature of the data set: MST binding to STAT3-SH2 mutant Q644A.
Excerpt: as §1, §2

The subject of data set [4] is STAT3 downstream gene expression. The data set can be described thus: RT-qPCR / Western blot of STAT3 downstream genes. Conditions: Capan-2, HPAC and BxPC-3. How it is done:
Pancreatic cancer cells were lysed in RIPA buffer supplemented with 1 mM phenylmethylsulfonyl fluoride (PMSF), a proteinase inhibitor cocktail and a phosphatase inhibitor cocktail (Sigma). Lysates were separated by 8–12% sodium dodecyl sulfate-polyacrylamide gel electrophoresis (SDS-PAGE) and transferred to nitrocellulose. The blots were probed with specific antibodies followed by a secondary antibody, and then membranes were examined by the LI-COR Odyssey infrared imaging system (LI-COR Biotechnology, Lincoln NE). The antibodies used and their technical information are listed in Supplementary Table S2.
Total RNA was isolated using TRIzol reagent (Takara, Japan). RNA was used to generate single-stranded cDNA according to the manufacturer’s protocols of the cDNA Reverse Transcription Kit (Takara, Japan) and then subjected to polymerase chain reaction (PCR) using SYBR Green Master Mix (Thermo Fisher Scientific). The expression of VEGF, Cyclin D1, c-Myc and Bcl-2 in Capan-2, HPAC, and BxPC-3 cells was validated by real-time quantitative PCR. The sequences of Real-time PCR primers are listed in Supplementary Table S3.
For orientation: Real-time PCR tracks product formation cycle by cycle.

Usually Kd stands for the equilibrium constant for the complex coming apart. As for `Cn1c(C(=O)N2CCN(Cc3ccc(OCC(F)(F)F)cc3)CC2)cc2ccc(Oc3cnc(-c4nc(-c5ccc(C(F)(F)F)cc5)no4)cn3)cc21`, the Binding to mutant entry at STAT3-SH2D mutant I634A is “did not bind”. The “Effect on cell viability upon STAT3 knockdown” value in data set [1] is on record as “loss of YY002 treatment efficacy upon STAT3 knockdown”. Moreover, in the data set with BxPC3 tumor, the “Tumor growth compared with vehicle” value is listed as “significant inhibition in tumor growth compared with vehicle treatment” and the “Tumor growth inhibition compared with FLLL32 treatment groups” value is “superior inhibition of tumor growth”. Besides, the dissociation constant (Kd) at STAT3-SH2 was 2.24 nM. Further, the Mice survived in the data set on AsPC-1 cells was found to be 60%. At STAT3^127–722, this compound displayed a Kd of 18.3 nM. The “Direct binding affinity, fold better than tested STAT3 inhibitors” value at STAT3^127–722 (vs Stattic) is reported as “approximately 1000 fold”. Moreover, in data set [2], the “Death of STAT3-dependent non-PDAC cell lines” value is given as “specific death of STAT3-dependent cell lines”. For the same compound, the “Liver Microsomes t1/2” value in data set [3] is above 2 h. Further, at STAT3-SH2D mutant Q644A, the “Binding affinity compared with SH2D-WT” value was “only modestly changed”. In addition, the “STAT3 downstream gene expression” value in data set [4] is on record as “significantly suppressed STAT3 downstream gene expression”.
